Test results as given in patent publication US20180193486A1, “COMPOSITIONS AND METHODS FOR TREATMENT OF AUTOIMMUNE AND OTHER DISEASE” (priority 2010, published 2018).

Chains of the proteins cited; added tags and fusions are not shown. Residues count along the entry.
UniProt P22303, 32-614, species assumed: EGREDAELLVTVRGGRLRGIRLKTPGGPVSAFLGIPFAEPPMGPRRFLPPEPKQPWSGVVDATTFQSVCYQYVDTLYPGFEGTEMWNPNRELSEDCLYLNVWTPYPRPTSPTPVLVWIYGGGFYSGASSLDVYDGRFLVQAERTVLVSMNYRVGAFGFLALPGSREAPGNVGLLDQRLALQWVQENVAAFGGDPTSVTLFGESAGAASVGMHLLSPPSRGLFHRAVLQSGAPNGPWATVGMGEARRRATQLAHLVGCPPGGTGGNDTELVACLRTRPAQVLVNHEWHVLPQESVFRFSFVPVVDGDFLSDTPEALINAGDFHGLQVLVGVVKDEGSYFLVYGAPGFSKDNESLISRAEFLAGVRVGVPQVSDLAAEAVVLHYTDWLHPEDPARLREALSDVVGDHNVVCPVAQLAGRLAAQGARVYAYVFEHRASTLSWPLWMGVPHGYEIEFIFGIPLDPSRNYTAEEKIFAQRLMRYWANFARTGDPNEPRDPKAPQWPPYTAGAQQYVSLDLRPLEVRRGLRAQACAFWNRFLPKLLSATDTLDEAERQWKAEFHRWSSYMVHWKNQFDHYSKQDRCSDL

Target: acetyl cholinesterase (Homo sapiens, UniProt P22303)
Details: compared with PBS

| Substance | CPT release rate in the presence of acetyl cholinesterase |
| --- | --- |
| Poly(CDDCys-PA-PEG)-Gly-CPT [HG6] | on the same order of magnitude as in PBS |
| Poly(CDDCys-PA-PEG)-GlyGlyGly-CPT [HGGG6] | on the same order of magnitude as in PBS |
